Values of other authors as cited in patent publication US20020035131A1, “Regimen and kit for amelioration of premature ejaculation” (Pentech Pharmaceuticals, Inc., priority 1999, published 2002).

System: serotonin (5-HT) uptake in brain neurons
Details: cited from earlier work

## Fc1ccc([C@@H]2CCNC[C@H]2COc2ccc3c(c2)OCO3)cc1 (relative stereo) [paroxetine, trans-(−)-3-(1,3-benzodioxol-5-yloxy)methyl-4-(4-fluorophenyl) piperidine]
  inhibition of serotonin (5-HT) uptake in brain neurons: selectively inhibits
